# Laboratory results from patent US5759556A, “Skin care compositions containing certain cyclic aliphatic unsaturated compounds and retinol or retinyl ester” (Chesebrough-Pond's USA Co., Division of Conopco, Inc., priority 1996, dated 1998).
# Biological target: T1, LRAT (Bos taurus, UniProt Q9BGL2)
# T1 construct: microsomal fraction isolated from bovine retinal pigment epithelial cells; from tissue; host or cells: bovine retinal pigment epithelial cells, microsomal fraction
# T1 sequence (Q9BGL2 1-230): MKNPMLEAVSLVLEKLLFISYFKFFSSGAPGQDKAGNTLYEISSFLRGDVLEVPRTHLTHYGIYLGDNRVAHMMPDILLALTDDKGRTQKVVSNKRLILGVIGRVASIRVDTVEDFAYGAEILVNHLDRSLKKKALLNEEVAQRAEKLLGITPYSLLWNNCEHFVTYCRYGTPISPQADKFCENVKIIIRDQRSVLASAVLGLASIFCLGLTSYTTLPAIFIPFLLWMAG
# Experiment: In vitro microsomal esterification of retinol, LRAT catalyzed (retinyl laurate formation)
# Assay type: biochemical, bovine
# Conditions: Table A
smiles,measurement,value
CC1=CCC(C(C)(C)O)CC1 (stereo not drawn) [alpha terpineol],inhibition at 100 µM,25%
